# Assay results reported in patent US20110130449.
# What was measured:
# [1] = system: ARTK(me3)QTARK(acetyl)STGGK(acetyl)A
# [2] = system: ARTKQTARK(acetyl)STGGK(acetyl)A
# [3] = system: NPKRSRSR(Me2asym)EHRRHRSR
# [4] = system: NPKRSRSR(Me2sym))EHRRHRSR (peptide c)
# [5] = system: SHSKNPKRSRSREHRR (peptide e)
# [6] = system: SHSRSR(Me2sym)SRDRKRRSRS (peptide b)
# [7] = system: SHSRSRSR(Me2sym)DRKRRSRS (peptide a)
substance,measurement,setting,value
N-terminally His6-tagged human Jmjd6 (residues 1-343),"activity (hydroxylation of the peptide by Jmjd6, MALDI-TOF MS)",APAPKKGSKKAVTKA,+16
same,"activity (hydroxylation of the peptide by Jmjd6, MALDI-TOF MS)",[1],no
same,"activity (hydroxylation of the peptide by Jmjd6, MALDI-TOF MS)",[2],no
same,"activity (hydroxylation of the peptide by Jmjd6, MALDI-TOF MS)",ARTKQTARK(me1)STGGKA,no
same,"activity (hydroxylation of the peptide by Jmjd6, MALDI-TOF MS)",ARTKQTARK(me2)STGGKA,no
same,"activity (hydroxylation of the peptide by Jmjd6, MALDI-TOF MS)",ARTKQTARK(me3)STGGKA,no
same,"activity (hydroxylation of the peptide by Jmjd6, MALDI-TOF MS)",ARTKQTARKSTGGKA,yes
same,"activity (hydroxylation of the peptide by Jmjd6, MALDI-TOF MS)",DRKRRSRSRDRRNR,no
same,"activity (hydroxylation of the peptide by Jmjd6, MALDI-TOF MS)",DRKRRSRSRDRR,no
same,"activity (hydroxylation of the peptide by Jmjd6, MALDI-TOF MS)",DRKRR,no
same,"activity (hydroxylation of the peptide by Jmjd6, MALDI-TOF MS)",GSKKAVTKAQKKDSK,+16
same,"activity (hydroxylation of the peptide by Jmjd6, MALDI-TOF MS)",HSRSRSRDRKRRSRS,no
same,"activity (hydroxylation of the peptide by Jmjd6, MALDI-TOF MS)",KR,no
same,"activity (hydroxylation of the peptide by Jmjd6, MALDI-TOF MS)",NPK(me3)RSRSKEHKK,no
same,"activity (hydroxylation of the peptide by Jmjd6, MALDI-TOF MS)",NPKK(Me3)SRSREHRR,yes
same,"activity (hydroxylation of the peptide by Jmjd6, MALDI-TOF MS)",NPKKSKSKEHKK,double
same,"activity (hydroxylation of the peptide by Jmjd6, MALDI-TOF MS)",NPKKSKSKEHRR,double
same,"activity (hydroxylation of the peptide by Jmjd6, MALDI-TOF MS)",NPKKSKSREHRR,double
same,"activity (hydroxylation of the peptide by Jmjd6, MALDI-TOF MS)",NPKRSRSEHRRHRSR,yes
same,"activity (hydroxylation of the peptide by Jmjd6, MALDI-TOF MS)",NPKRSRSKEHKK,yes
same,"activity (hydroxylation of the peptide by Jmjd6, MALDI-TOF MS)",NPKRSRSR(Me1)EHRRHRSR,yes
same,"activity (hydroxylation of the peptide by Jmjd6, MALDI-TOF MS)",[3],yes
same,"activity (hydroxylation of the peptide by Jmjd6, MALDI-TOF MS)",[4],yes
same,"activity (hydroxylation of the peptide by Jmjd6, MALDI-TOF MS)",NPKRSRSREHKK,yes
same,"activity (hydroxylation of the peptide by Jmjd6, MALDI-TOF MS)",NPKRSRSREHRR (peptide d),yes
same,"activity (hydroxylation of the peptide by Jmjd6, MALDI-TOF MS)",NPKRSRSREHRRHRS,yes
same,"activity (hydroxylation of the peptide by Jmjd6, MALDI-TOF MS)",NPKRSRSREHRRHR,yes
same,"activity (hydroxylation of the peptide by Jmjd6, MALDI-TOF MS)",NPKRSRSREHRRH,yes
same,"activity (hydroxylation of the peptide by Jmjd6, MALDI-TOF MS)",NPKRSRSREHR,moderate
same,"activity (hydroxylation of the peptide by Jmjd6, MALDI-TOF MS)",NPKRSRSREH,no
same,"activity (hydroxylation of the peptide by Jmjd6, MALDI-TOF MS)",NPKRSRSRE,no
same,"activity (hydroxylation of the peptide by Jmjd6, MALDI-TOF MS)",NPKRSRS,no
same,"activity (hydroxylation of the peptide by Jmjd6, MALDI-TOF MS)",NPKRS,no
same,"activity (hydroxylation of the peptide by Jmjd6, MALDI-TOF MS)",NPKR,no
same,"activity (hydroxylation of the peptide by Jmjd6, MALDI-TOF MS)",NPR(me1)RSRSKEHKK,no
same,"activity (hydroxylation of the peptide by Jmjd6, MALDI-TOF MS)",NPR(me2aym)RSRSKEHKK,no
same,"activity (hydroxylation of the peptide by Jmjd6, MALDI-TOF MS)",NPR(me2sym)RSRSKEHKK,no
same,"activity (hydroxylation of the peptide by Jmjd6, MALDI-TOF MS)",PKR,no
same,"activity (hydroxylation of the peptide by Jmjd6, MALDI-TOF MS)",QLATKAARKSAPATG,no
same,"activity (hydroxylation of the peptide by Jmjd6, MALDI-TOF MS)",RDKENRHRKRSHSRSRS,yes
same,"activity (hydroxylation of the peptide by Jmjd6, MALDI-TOF MS)",RDRKRRS,no
same,"activity (hydroxylation of the peptide by Jmjd6, MALDI-TOF MS)",RKR,no
same,"activity (hydroxylation of the peptide by Jmjd6, MALDI-TOF MS)",RSRDRKRRSRS,no
same,"activity (hydroxylation of the peptide by Jmjd6, MALDI-TOF MS)",RSRSRDRKRRSRS,no
same,"activity (hydroxylation of the peptide by Jmjd6, MALDI-TOF MS)",SGR(me2asym)GKQGGKARAKTR,+16
same,"activity (hydroxylation of the peptide by Jmjd6, MALDI-TOF MS)",SGRGKQGGKARAKTR,+16
same,"activity (hydroxylation of the peptide by Jmjd6, MALDI-TOF MS)",[5],double hydroxylation
same,"activity (hydroxylation of the peptide by Jmjd6, MALDI-TOF MS)",SHSKNPRRSRSREHRR,yes
same,"activity (hydroxylation of the peptide by Jmjd6, MALDI-TOF MS)",SHSRNPKRSRSREHRR,yes
same,"activity (hydroxylation of the peptide by Jmjd6, MALDI-TOF MS)",SHSRNPRRSRSREHRR,no
same,"activity (hydroxylation of the peptide by Jmjd6, MALDI-TOF MS)",[6],yes
same,"activity (hydroxylation of the peptide by Jmjd6, MALDI-TOF MS)",[7],yes
same,"activity (hydroxylation of the peptide by Jmjd6, MALDI-TOF MS)",SHSRSRSRDRKRRSRS,yes
same,"activity (hydroxylation of the peptide by Jmjd6, MALDI-TOF MS)",SRDRARRSR,no
same,"activity (hydroxylation of the peptide by Jmjd6, MALDI-TOF MS)",SRDRK(Me3)RRSR,no
same,"activity (hydroxylation of the peptide by Jmjd6, MALDI-TOF MS)",SRDRKRRSR,no
same,"activity (hydroxylation of the peptide by Jmjd6, MALDI-TOF MS)",SRDRRRRSR,no
same,"activity (hydroxylation of the peptide by Jmjd6, MALDI-TOF MS)",SRSRDRKRRSRS,no
same,"activity (hydroxylation of the peptide by Jmjd6, MALDI-TOF MS)",SRSRSRDRKRRSRS,no
